From patent EP4725969A1, “ANTI-HER2 COMPLEMENTARY BISPECIFIC ANTIBODY-DRUG CONJUGATE, PREPARATION METHOD THEREFOR AND USE THEREOF” (priority 2023, dated 2024)

Legend:
SKOV-3 = conditions: SKOV-3, HER2-overexpressing, 3 to 5 days
ZR-75-1 = assay: In vitro tumor cell-killing assay, ZR-75-1; conditions: ZR-75-1, HER2-low-expressing
NCI-N87 = assay: In vitro tumor cell-killing assay, NCI-N87; conditions: NCI-N87, HER2-overexpressing, 3 to 5 days
[1] = tested on: HER2-intermediate-expressing JIMT-1 breast cancer model; assay: Mouse subcutaneous xenograft model, JIMT-1; conditions: JIMT-1 model, intravenous
[2] = tested on: HER2-low-expression breast cancer patients; conditions: Modi et al. 2022, cited from earlier work
SKBR-3 = assay: In vitro tumor cell-killing assay, SKBR-3; conditions: SKBR-3, HER2-overexpressing, 3 to 5 days
[3] = tested on: HER2-overexpressing NCI-N87 gastric cancer model; assay: Mouse subcutaneous xenograft model, NCI-N87; conditions: intravenous
NCI-N87(R) = assay: Mouse subcutaneous xenograft model with acquired resistance to DS-8201, NCI-N87(R); format: in vivo, BALB/c Nude mice; conditions: DS-8201-resistant NCI-N87(R) model, 3 mg/kg, intravenous, four weeks
[4] = tested on: HER2-low-expressing RT-112 bladder cancer model; assay: Mouse subcutaneous xenograft model, RT-112; conditions: RT-112 model, intravenous

For DS-8201, the cell-killing activity (SKOV-3) was “potent cytotoxicity”, the cell-killing activity (ZR-75-1) was “almost no cytotoxic effect” and the cell-killing activity (NCI-N87) was “potent cytotoxicity”. For the same substance, the “tumor growth inhibition compared to the vehicle control” value [1] was “significant tumor growth inhibition activities”, the response rate ([2]; HER2-low-expression breast cancer patients) was ~ 50% and the “incidence of drug-related interstitial lung disease/pneumonia” value [2] was 12.1%. The cell-killing activity (SKBR-3) was “potent cytotoxicity”, the “tumor growth inhibition compared to the vehicle control” value [3] was “significant tumor growth inhibition activities” and the “antitumor activity / tumor growth” value (NCI-N87(R)) was “continued and stable growth”. The “tumor growth inhibition compared to the vehicle control” value [4] was “significant tumor growth inhibition activities”.
